From ChEMBL document CHEMBL5046221, “Identification of Pyrimidine-Based Lead Compounds for Understudied Kinases Implicated in Driving Neurodegeneration” (J Med Chem, 2022)
pIC50: −log10 of the molar value.

By UniProt entry, the sequences of proteins in these tests, tags left out. Where a name states a change or a piece, a line headed by the entry shows the natural chain unless it says otherwise.
UniProt Q5S007: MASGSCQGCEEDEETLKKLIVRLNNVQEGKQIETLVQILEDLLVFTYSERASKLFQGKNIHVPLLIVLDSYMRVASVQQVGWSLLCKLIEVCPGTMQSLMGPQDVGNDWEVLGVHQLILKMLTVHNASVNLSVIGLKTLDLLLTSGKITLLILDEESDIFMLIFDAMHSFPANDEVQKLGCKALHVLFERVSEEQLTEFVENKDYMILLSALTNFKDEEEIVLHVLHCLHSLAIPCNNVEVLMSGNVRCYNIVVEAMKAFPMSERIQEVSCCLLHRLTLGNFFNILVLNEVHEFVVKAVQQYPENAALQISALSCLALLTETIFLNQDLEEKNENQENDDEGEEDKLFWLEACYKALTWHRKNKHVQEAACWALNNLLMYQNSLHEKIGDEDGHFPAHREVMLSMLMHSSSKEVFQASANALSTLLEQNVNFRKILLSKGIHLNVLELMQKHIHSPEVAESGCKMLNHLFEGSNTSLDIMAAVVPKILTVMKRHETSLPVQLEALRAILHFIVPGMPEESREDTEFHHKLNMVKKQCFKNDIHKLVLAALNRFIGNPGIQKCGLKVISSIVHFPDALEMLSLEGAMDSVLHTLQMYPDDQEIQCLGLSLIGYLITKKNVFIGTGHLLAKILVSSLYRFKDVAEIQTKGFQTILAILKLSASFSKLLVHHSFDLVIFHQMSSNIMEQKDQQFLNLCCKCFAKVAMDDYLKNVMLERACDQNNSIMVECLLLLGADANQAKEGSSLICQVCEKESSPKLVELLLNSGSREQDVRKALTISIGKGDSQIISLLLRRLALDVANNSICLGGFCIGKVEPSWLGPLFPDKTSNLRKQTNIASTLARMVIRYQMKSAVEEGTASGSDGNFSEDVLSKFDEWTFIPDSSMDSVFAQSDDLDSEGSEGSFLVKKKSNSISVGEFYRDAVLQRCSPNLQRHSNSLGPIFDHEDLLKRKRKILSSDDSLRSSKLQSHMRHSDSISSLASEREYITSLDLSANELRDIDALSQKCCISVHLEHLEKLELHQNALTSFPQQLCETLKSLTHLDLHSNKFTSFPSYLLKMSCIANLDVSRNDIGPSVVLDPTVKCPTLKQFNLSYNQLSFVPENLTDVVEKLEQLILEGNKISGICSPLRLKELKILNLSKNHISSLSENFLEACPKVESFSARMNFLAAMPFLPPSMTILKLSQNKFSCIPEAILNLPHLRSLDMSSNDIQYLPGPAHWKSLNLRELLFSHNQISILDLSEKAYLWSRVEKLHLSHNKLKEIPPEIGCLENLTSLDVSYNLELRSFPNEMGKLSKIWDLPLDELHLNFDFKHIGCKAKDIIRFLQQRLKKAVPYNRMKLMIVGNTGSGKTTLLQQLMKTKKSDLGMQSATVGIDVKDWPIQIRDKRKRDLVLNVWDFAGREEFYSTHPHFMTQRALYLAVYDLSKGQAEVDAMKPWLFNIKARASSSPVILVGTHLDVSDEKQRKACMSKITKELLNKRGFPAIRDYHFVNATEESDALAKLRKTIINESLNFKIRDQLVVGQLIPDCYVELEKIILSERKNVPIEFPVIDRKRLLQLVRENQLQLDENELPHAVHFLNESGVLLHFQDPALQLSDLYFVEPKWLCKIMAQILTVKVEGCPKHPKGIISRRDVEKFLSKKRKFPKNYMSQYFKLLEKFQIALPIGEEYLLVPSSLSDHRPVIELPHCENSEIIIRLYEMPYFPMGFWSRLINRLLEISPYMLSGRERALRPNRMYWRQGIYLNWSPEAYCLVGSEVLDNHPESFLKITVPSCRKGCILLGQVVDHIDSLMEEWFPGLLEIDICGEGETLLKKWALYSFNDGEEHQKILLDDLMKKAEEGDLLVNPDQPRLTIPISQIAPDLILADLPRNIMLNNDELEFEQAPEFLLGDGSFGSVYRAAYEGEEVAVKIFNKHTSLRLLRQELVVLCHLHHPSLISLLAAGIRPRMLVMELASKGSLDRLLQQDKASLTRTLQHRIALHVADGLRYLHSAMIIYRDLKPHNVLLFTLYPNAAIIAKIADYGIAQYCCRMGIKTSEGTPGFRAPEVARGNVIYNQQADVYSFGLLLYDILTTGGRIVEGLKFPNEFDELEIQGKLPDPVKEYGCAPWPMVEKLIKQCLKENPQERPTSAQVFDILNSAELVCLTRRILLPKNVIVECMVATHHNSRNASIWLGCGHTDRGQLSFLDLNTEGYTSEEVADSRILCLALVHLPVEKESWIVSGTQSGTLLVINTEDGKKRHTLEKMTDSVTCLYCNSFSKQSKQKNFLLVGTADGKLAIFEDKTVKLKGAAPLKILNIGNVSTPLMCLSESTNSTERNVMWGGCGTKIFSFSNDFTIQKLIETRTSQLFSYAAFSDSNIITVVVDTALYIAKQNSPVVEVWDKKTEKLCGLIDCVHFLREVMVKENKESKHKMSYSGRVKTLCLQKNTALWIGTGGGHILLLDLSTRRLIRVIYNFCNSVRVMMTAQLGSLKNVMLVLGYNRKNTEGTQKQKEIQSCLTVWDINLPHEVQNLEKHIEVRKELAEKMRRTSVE

How the values were obtained:
[1] = molecular target: T1, Leucine-rich repeat serine/threonine-protein kinase 2 (Homo sapiens, UniProt Q5S007); test: Inhibition of recombinant human LRRK2 (970 to end residues) using RLGRDKYKTLRQIRQ as substrate incubated for 40 mins in presence of [gamma-33P-ATP] by radiometric scintillation assay
How it was run: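 Eurofins radiometric kinase assay run at ATP equal to Km for each kinase. 9-point dose–response in duplicate gives the IC50.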

[2] = molecular target: T1, Leucine-rich repeat serine/threonine-protein kinase 2; test: Inhibition of NanoLuc-fused LRRK2 (unknown origin) expressed in HEK293 cells incubated for 2 hrs by NanoBRET assay; type: cell-based
How it was run: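 Cellular target engagement by NanoBRET in dose–response, done in singlicate by Carna Biosciences following the manufacturer's protocol. Compounds tested at concentrations up to 10 μM.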

Cc1nn(CC(F)(F)F)cc1Nc1ncc(Br)c(NCc2ccc(S(N)(=O)=O)cc2)n1
pIC50 [1]: 6.80 | pIC50 [2]: < 5.00
